BindingDB's records for doi:10.1021/jm031011g (Xenova, 2004)

Experiments:
[1] = molecular target: Multidrug resistance-associated protein 1 (Homo sapiens) (UniProt P33527); assay: Effective concentration to inhibit MRP1 in potentiation assay
[2] = molecular target: Multidrug resistance-associated protein 1 (Homo sapiens) (UniProt P33527); assay: as above; remark: listed apart in the source

SMILES	EC50 [1]	EC50 [2]
CCNC(=O)c1c2n(c3c(N4CCN(CCc5ccc(F)c(F)c5)CC4)ncnc13)CCCC2 [4-{4-[2-(3,4-Difluoro-phenyl)-ethyl]-piperazin-1-yl}-6,7,8,9-tetrahydro-pyrimido[4,5-b]indolizine-10-carboxylic acid ethylamide]	100 nM	
O=C(Nc1cccnc1)c1c2n(c3c(N4CCN(CCc5ccc(F)c(F)c5)CC4)ncnc13)CCCC2 [4-{4-[2-(3,4-Difluoro-phenyl)-ethyl]-piperazin-1-yl}-6,7,8,9-tetrahydro-pyrimido[4,5-b]indolizine-10-carboxylic acid pyridin-3-ylamide]		235 nM
